Assay results reported in patent US8785452B2, “Anti-infective compounds” (priority 2008, dated 2014).

System: Raw264.7 cells
Assay: Cell number (CellNb) from image analysis of the phenotypic cell-based assay

C/C(=N/NC(=O)c1cc([N+](=O)[O-])cc([N+](=O)[O-])c1)c1ccc([N+](=O)[O-])o1
QIM Confirm CellNb 0.2 uM (confirmation, 0.2 uM): 443.0
QIM Confirm CellNb 2 uM (confirmation, 2 uM): 209.0
QIM Confirm CellNb 20 uM (confirmation, 20 uM): 184.1
Primary QIM CellNb (primary screen, 20 μM): 106.8
